# Ab-95 light chain CDR variants: yeast mating affinities

The measurements come from Engelhart et al. 2022 (doi:10.1038/s41597-022-01779-4) through the FLAb antibody collection.

Binding partner: SARS-CoV-2 spike HR2 peptide, sequence PDVDLGDISGINAS.

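Phage display of a naive human antibody library on the peptide gave the parent. Library AAYL52 holds single substitutions and randomly drawn double and triple substitutions in the CDRs. AlphaSeq pools MATa yeast showing the antibodies with MATalpha yeast showing the peptide. After mating in shaken culture at 30 °C for 16 h, diploids were selected and their barcode pairs sequenced. A regression on co-assayed BCL2-family reference pairs converts the normalised counts of each replicate to an apparent Kd. There are three technical replicates.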

Parent scFv Ab-95: VH joined to VL by three GGGGS repeats. Changes lie in the light chain CDRs alone.
VH: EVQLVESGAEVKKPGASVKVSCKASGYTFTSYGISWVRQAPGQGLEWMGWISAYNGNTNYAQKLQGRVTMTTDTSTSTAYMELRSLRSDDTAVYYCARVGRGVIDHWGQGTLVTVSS
VL: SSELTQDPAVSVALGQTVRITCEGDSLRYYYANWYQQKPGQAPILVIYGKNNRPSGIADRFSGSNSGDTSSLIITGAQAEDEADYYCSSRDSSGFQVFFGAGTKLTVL

Substitutions are numbered in sequence along the VL above, starting at 1 (not Kabat).
Affinities are written as log10 Kd with Kd in nM; a lower number is a better binder.
The mean shown is taken over the replicates in which the pair was detected.
A pair that was not seen in that replicate is written "nd"; this usually means weak binding, but a binder can also be missed.

changes,"log10 Kd, replicates","mean, log10 nM",control signals
D25V/Y29D/G49A,2.85 / 3.11 / 2.86,2.94,0 of 9
K50S/S88W/Q96S,3.56 / 2.91 / 2.92,3.13,5 of 9 (3.90)
G24I/N33A/R90M,3.98 / 3.97 / 4.48,4.14,3 of 9 (4.12)
L27G/R28S/D91H,nd / 3.58 / nd,3.58,1 of 9 (4.11)
D25H/S89G/Q96C,nd / 3.58 / 3.81,3.70,5 of 9 (4.16)
D25K/P54I/Q96S,3.70 / 3.31 / 3.54,3.51,3 of 9 (4.47)
P54Y/R90G/F98E,4.79 / nd / 3.86,4.33,0 of 9
E23L/R53F/F98N,nd / nd / nd,nd,1 of 9 (3.31)
E23M/Y29L/Y30G,0.75 / 0.60 / -0.09,0.42,4 of 9 (4.38)
G24L/D25Y/S26T,3.46 / 2.11 / 3.76,3.11,3 of 9 (3.15)
E23V/D25Q/R90I,3.06 / 3.56 / 3.51,3.38,1 of 9 (2.80)
R28E/D91T/F95D,3.50 / 2.83 / 2.83,3.05,3 of 9 (4.47)
K50N/R53G/Q96C,4.25 / 3.33 / 3.22,3.60,7 of 9 (4.63)
D25W/S88R/D91H,4.58 / nd / 3.95,4.27,2 of 9 (3.38)
S26R/Y29R/N52H,nd / 4.51 / 4.15,4.33,3 of 9 (3.72)
R90F,nd / nd / nd,nd,1 of 9 (5.06)
R53D/S55V,4.35 / 3.68 / 3.33,3.79,6 of 9 (4.07)
L27E/A32W/Q96H,3.93 / 3.20 / 4.30,3.81,4 of 9 (3.67)
S26A/R28H/S93V,3.15 / 2.81 / 2.29,2.75,7 of 9 (3.83)
Y29D/K50N/D91H,1.45 / 1.45 / 0.90,1.27,3 of 9 (4.05)
K50F/D91N/V97S,nd / nd / nd,nd,1 of 9 (3.82)
D25C,2.15 / 1.75 / 1.46,1.79,1 of 9 (3.00)
D25T/Y30D/S93H,2.38 / 2.33 / 2.02,2.24,4 of 9 (4.41)
S89I/Q96N,2.82 / 2.47 / 2.44,2.58,1 of 9 (4.96)
Y29D/K50N/S89T,1.71 / 1.89 / 1.51,1.70,1 of 9 (4.30)
G24W/S26H/V97S,4.02 / nd / 4.03,4.03,4 of 9 (3.63)
R28K/A32F/P54A,1.54 / 1.80 / 1.11,1.49,0 of 9
G24D/R53C/G94N,nd / nd / nd,nd,4 of 9 (4.38)
Y30I/S55E/Q96H,1.48 / 1.59 / 1.22,1.43,1 of 9 (5.43)
S26I/N51G/S92I,4.12 / 3.78 / 4.58,4.16,4 of 9 (4.83)
N51V/D91I/F98N,5.41 / nd / nd,5.41,2 of 9 (3.08)
Y29I/Y31V/S88E,nd / 4.66 / nd,4.66,3 of 9 (4.08)
G24A/P54Y/D91I,4.16 / 3.45 / 4.23,3.95,3 of 9 (3.83)
Y30D/S88D/F95S,2.96 / 2.99 / 3.65,3.20,3 of 9 (3.66)

Again, the first 2 entries without any signal:

| changes | log10 Kd, replicates | mean, log10 nM | control signals |
|---|---|---|---|
| E23L/R53F/F98N | nd / nd / nd | nd | 1 of 9 (3.31) |
| R90F | nd / nd / nd | nd | 1 of 9 (5.06) |

Background: pairings of library AAYL52 with three empty control strains gave a value in 28% of cases (median 3.91, 5th percentile 2.90). Values in that range, when seen in few replicates, are hard to tell from nonspecific mating. The control count says in how many pairings with the empty strains this scFv gave a signal, with their mean in brackets.
Parent in this assay: reference entry 2.31, copy in this library 2.25.